Data taken from patent US20200246284A1 (Academia Sinica, priority 2015, published 2020).

Test system: Caco-2 cell monolayers
Test: Caco-2 permeability
Format: in vitro ADME, human
Settings: high and low standard
Source text: The Caco-2 permeability assay is considered to be the industry gold standard for in vitro prediction of in vivo human intestinal permeability and bioavailability of orally administered drugs. The Caco-2 permeability assay uses an established method for predicting the absorption of therapeutic compounds across the GIT by measuring the rate of transport across a contiguous Caco-2 cell monolayer. […] The Caco-2 assay measures the passage of a test compound from a donor chamber into an acceptor chamber through a porous membrane on which a confluent Caco-2 monolayer forms a cellular barrier.

SMILES: COC(=O)c1ccccc1-c1c2ccc(=N)cc-2oc2cc(N)ccc12.Cl [Rodamin 123]
- Papp (A to B), standards: Low standard = 0.88 × 10−6 cm/sec
